Assay results from PMC6003569, “Novel fluorinated carbonic anhydrase IX inhibitors reduce hypoxia-induced acidification and clonogenic survival of cancer cells” (Oncotarget, 2018).

Assays:
CA IX = target: T1, CA IX (Homo sapiens, UniProt Q16790); test: Fluorescent thermal shift assay (FTSA); type: binding; conditions: from FTSA Kds
T1 construct: 12 recombinant catalytic domains of human active CA isoforms as determined by FTSA
Description: The binding affinity of synthesized compounds to recombinant human CAs was measured by the fluorescent thermal shift assay (FTSA) where the thermal stabilization of the protein by the compound was determined by following the fluorescence dependence on temperature at various added compound concentrations. The melting temperature (Tm) of CA was measured using the Corbett Rotor-Gene 6000 instrument (QIAGEN Rotor-Gene Q, excitation at 365 ± 20 nm, emission detection at 460 ± 15 nm). The protein was heated from 25 to 99° C at a rate of 1° C/min and the fluorescence change of the solvatochromic dye 8-anilino-1-naphthalene sulfonate (ANS) was followed. The samples consisted of 5–10 μM CA, 0–200 μM ligand, 50 μM ANS, and 50 mM sodium phosphate buffer containing 100 mM NaCl at pH 7.0, with the final DMSO concentration of 2% (v/v). Protein unfolding profiles and the melting temperatures were determined at each ligand concentration while recording extrinsic fluorescence of ANS. Data analysis was performed as previously described. All experiments were repeated at least twice.

H460 cells [1] = test: Extracellular acidification (pH) assay; type: cell-based, human
HeLa cells = test: alamarBlue cell viability assay; type: cell-based, human; conditions: 72 h
H460 cells [2] = test: alamarBlue cell viability assay; type: cell-based, human; conditions: H460, 72 h
A549 cells = test: alamarBlue cell viability assay; type: cell-based, human; conditions: A549, 72 h
MDA-MB-231 cells = test: alamarBlue cell viability assay; type: cell-based, human; conditions: MDA-MB-231, 72 h
AsPC-1 cells = test: alamarBlue cell viability assay; type: cell-based, human; conditions: AsPC-1, 48 h

`NS(=O)(=O)c1c(F)c(F)c(SCCc2ccc(C(=O)O)cc2)c(F)c1NC1CCCCCCCCCCC1` [VR16-09, 4-(2-{[4-(Aminosulfonyl)-3-(cyclododecylamino)-2,5,6-tetrafluorophenyl]thio}ethyl)benzoic acid] was tested, and the “selectivity for CA IX over CA I and CA II” value (CA IX) was “more than one million-fold”, the “functional effect on reduction of hypoxia-induced acidification, relative to VR16-10” value (H460 cells [1]) was ~ 3 fold and the “Cytotoxic ratio (CR) of selectivity to hypoxia” value (HeLa cells) was 0.46 ± 0.06. The “Cytotoxic ratio (CR) of selectivity to hypoxia” value (H460 cells [2]) was 0.49 ± 0.04, the “Cytotoxic ratio (CR) of selectivity to hypoxia” value (A549 cells) was 0.22 ± 0.02 and the “Cytotoxic ratio (CR) of selectivity to hypoxia” value (MDA-MB-231 cells) was 0.88 ± 0.03. For the same compound, the “Cytotoxic ratio (CR) of selectivity to hypoxia” value (AsPC-1 cells) was 0.96 ± 0.12.
